Test results taken from patent US8071760B2, “Boron-containing porphyrin compounds and their uses” (Board of Supervisors of Louisiana State University and …, priority 2005, dated 2011).
Entries after “also recorded” stand apart in the source; their conditions may differ. Marks after values point to notes of the source that are not given here.

Tested on: BALB/c mice
Assay: Animal toxicity (clinical signs, serum chemistry, histopathology)
Conditions: for AP / BUN / Bilirubin / Globulin / Glucose / Total Prot. / ALT / AST: serum, blood 48 h after administration, group mean; for ALT / AST: in U/L (unit assumed)
Experimental: Twelve groups of two BALB/c mice each, 4-6 weeks of age and weighing 12-24 g (mean=19 g), were used for toxicity studies. There were 8 female and 16 male mice. Mice in groups 1, 3, 5, 7, and 9 were administered TBP 19 once via i.p. injection, at increasing dosages: group 1 (20 mg/kg of a 2 mg/ml solution), group 3 (40 mg/kg of a 2 mg/ml solution), group 5 (80 mg/kg of a 4 mg/ml solution), group 7 (120 mg/kg of a 4 mg/ml solution), and group 9 (160 mg/kg of a 4 mg/ml solution). Mice in groups 2, 4, 6, 8, and 10 were administered porphyrin 20 once via i.p. injection at increasing dosages: group 2 (20 mg/kg of a 2 mg/ml solution), group 4 (40 mg/kg of a 2 mg/ml solution), group 6 (80 mg/kg of a 4 mg/ml solution), group 8 (120 mg/kg of a 4 mg/ml solution), and group 10 (160 mg/kg of a 4 mg/ml solution). Two groups of mice served as vehicle controls. Mice in group 11 received sterile 4% Cremophor EL (Fluka) in PBS and served as controls for mice receiving 20, 40, and 80 mg/kg compound; while mice in group 12 received 6% Cremophor EL and served as controls for mice receiving 120 and 160 mg/kg compound.
For each compound, groups were dosed sequentially and each group was evaluated daily for signs of toxicity, including hunched posture, rough hair coat, and decreased responsiveness. Mice were anesthetized with CO2 48 h after compound administration, and blood was collected by cardiocentesis for clinical chemistry evaluation. Serum chemistry was analyzed, including glucose, aspartate aminotransferase (AST), alanine aminotransferase (ALT), alkaline phosphatase (AP), bilirubin, total protein (TP), albumin, globulin, and blood urea nitrogen (BUN). The mice were exsanguinated and necropsies were performed. Tissues, including lung, kidney, thymus, heart, Harderian gland, spleen, stomach, small intestine and colon were fixed in 10% neutral buffered formalin. The fixed tissues were processed and examined by a board-certified pathologist.

[1] = BALB/c mice, 20 mg/kg single i.p. injection
[2] = BALB/c mice, 40 mg/kg single i.p. injection
[3] = BALB/c mice, 80 mg/kg single i.p. injection
[4] = BALB/c mice, 120 mg/kg single i.p. injection
[5] = BALB/c mice, 160 mg/kg single i.p. injection

In the case of “tetra(nido-carboranylphenyl)porphyrin [Compound 20, reference compound]”, the “toxicity to BALB/c mice” value (160 mg/kg, single i.p. injection, 4 mg/mL, listed as porphyrin 20) is reported as “non-toxicity; also recorded: non-toxic”, the signs of toxicity (BALB/c mice, 20-160 mg/kg single i.p. injection, daily evaluation) is reported as “No signs of toxicity” and the “serum chemistry changes attributable to compound” value (BALB/c mice, i.p., maximum 160 mg/kg) is reported as “No serum chemistry changes were observed”. For the same substance, the “clinical, biochemical, or histopathological effects attributable to administration” value (BALB/c mice, single i.p. injection up to 160 mg/kg) was “No clinical, biochemical, or histopathological effects were observed”, the “toxicity compared with other negatively charged carboranyl-containing porphyrins (BOPP, MnBOPP, BTPP, NiNTCP-H, ZnDPE, NiDPE)” value (mice, preliminary results) was “significantly less toxic” and the AP [1] was 167.5^a. The BUN [1] was 26.5 mg/dL, the Bilirubin [1] was 0.2 mg/dL and the Globulin [1] was 1.6^a. The Glucose [1] was 159.5^a, the “Total Prot.” value [1] was 4.3^a and the ALT [1] was 98.5. For the same substance, the AST [1] was 146.0, the AP [2] was 132.0^a,c and the BUN [2] was 24 mg/dL. The Bilirubin [2] was 0.25 mg/dL, the Globulin [2] was 2.0^b and the Glucose [2] was 188.0^b. For the same substance, the “Total Prot.” value [2] was 4.6^a,b, the ALT [2] was 94.0 and the AST [2] was 202.0. The AP [3] was 148.0^a,c, the BUN [3] was 27.5 mg/dL and the Bilirubin [3] was 0.25 mg/dL. For the same substance, the Globulin [3] was 2.35^c, the Glucose [3] was 153.5^a and the “Total Prot.” value [3] was 5.0^b. For the same substance, the ALT [3] was 340.0, the AST [3] was 258.0 and the AP [4] was 160.5^a. For the same substance, the BUN [4] was 16.0^a, the Bilirubin [4] was 0.25 mg/dL and the Globulin [4] was 2.4^a. For the same substance, the Total Prot. [4] was 4.9 g/dL, the ALT [4] was 968.0 and the AST [4] was 774.0. The Glucose (BALB/c mice, 120 mg/kg single i.p. injection, in mg/dL (unit assumed)) was 239.5, the AP [5] was 223.0^b and the BUN [5] was 25.5^a,b. For the same substance, the Bilirubin [5] was 0.25 mg/dL, the Globulin [5] was 2.0^b and the Total Prot. [5] was 4.5 g/dL. The ALT [5] was 1096.0, the AST [5] was 981.0 and the Glucose (BALB/c mice, 160 mg/kg single i.p. injection, in mg/dL (unit assumed)) was 214.5.
